Drawing on ChEMBL document CHEMBL1157467, “Discovery of nonsteroidal 17beta-hydroxysteroid dehydrogenase 1 inhibitors by pharmacophore-based screening of virtual compound libraries” (J Med Chem, 2008), this text covers IC50 for 1 molecule.

The target of the experiment is T1, 17-beta-hydroxysteroid dehydrogenase type 2 (Homo sapiens, UniProt P37059).
T1 sequence (P37059 whole entry): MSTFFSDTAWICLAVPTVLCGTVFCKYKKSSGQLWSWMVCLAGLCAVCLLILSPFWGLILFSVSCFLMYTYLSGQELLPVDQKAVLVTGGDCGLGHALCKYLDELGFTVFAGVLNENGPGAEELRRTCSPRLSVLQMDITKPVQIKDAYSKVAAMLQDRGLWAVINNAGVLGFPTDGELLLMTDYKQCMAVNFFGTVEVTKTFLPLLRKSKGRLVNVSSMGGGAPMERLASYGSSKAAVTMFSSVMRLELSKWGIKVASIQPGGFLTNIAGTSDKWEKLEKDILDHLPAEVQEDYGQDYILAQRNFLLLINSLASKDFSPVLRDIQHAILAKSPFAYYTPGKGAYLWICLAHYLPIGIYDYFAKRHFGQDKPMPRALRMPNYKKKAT
Put plainly: Inhibition of human recombinant 17beta-HSD2 expressed in HEK293 cell lysate assessed as conversion of radiolabeled estrone to estradiol. The class given is cell-free.

pIC50: −log10 of the molar value.

One may read the pIC50 as the negative decadic logarithm of the IC50, by convention in mol/L. `O=c1c(-c2ccc(O)cc2)coc2cc(O)cc(O)c12` [GENISTEIN]: the negative logarithm of the IC50 (pIC50) is 4.78.
